Laboratory results from paper PMC4132815, “Structure and Function of the Bacterial Heterodimeric ABC Transporter CydDC” (The Journal of Biological Chemistry, 2014).

Amino acid sequences for entries named in this document (tags omitted). Chains listed by the source or under a name are the forms on record and can include a tag or linker.
UniProt P23886, whole entry, stated change not applied: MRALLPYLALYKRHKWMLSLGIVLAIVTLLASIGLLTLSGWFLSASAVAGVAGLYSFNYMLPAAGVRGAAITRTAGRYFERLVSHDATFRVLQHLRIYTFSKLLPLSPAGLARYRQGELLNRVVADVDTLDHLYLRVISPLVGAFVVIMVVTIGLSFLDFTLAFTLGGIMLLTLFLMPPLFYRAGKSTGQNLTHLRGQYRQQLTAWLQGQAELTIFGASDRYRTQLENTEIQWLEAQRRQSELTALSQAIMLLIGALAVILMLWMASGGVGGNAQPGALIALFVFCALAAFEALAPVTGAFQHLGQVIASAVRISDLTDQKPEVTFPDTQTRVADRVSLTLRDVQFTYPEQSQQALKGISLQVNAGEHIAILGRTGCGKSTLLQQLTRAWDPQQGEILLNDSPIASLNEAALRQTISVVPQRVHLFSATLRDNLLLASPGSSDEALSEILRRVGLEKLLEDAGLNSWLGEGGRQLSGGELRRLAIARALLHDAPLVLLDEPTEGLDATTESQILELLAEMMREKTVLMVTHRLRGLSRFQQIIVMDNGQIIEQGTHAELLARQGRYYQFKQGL
UniProt P29018, other isoform, or with tags, fused parts or gaps INS2NS: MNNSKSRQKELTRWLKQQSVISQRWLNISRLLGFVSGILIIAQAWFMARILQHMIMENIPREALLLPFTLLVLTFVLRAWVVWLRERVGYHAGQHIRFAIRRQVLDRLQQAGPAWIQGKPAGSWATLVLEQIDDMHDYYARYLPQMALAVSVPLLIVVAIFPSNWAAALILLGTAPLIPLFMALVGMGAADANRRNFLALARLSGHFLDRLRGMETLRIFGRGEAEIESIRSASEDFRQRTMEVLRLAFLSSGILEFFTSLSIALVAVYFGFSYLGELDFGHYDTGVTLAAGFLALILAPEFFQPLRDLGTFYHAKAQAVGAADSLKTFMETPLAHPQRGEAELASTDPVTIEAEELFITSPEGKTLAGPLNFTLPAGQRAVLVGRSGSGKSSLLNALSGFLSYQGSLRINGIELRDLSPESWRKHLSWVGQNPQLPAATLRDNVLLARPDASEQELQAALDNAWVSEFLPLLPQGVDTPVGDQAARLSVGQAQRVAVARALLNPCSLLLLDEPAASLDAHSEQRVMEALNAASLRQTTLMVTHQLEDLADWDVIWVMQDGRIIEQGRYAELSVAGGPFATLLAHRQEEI

Molecular target: T1, CydDC (C-His6-CydDC) (Escherichia coli, UniProt P23886+P29018, P29018:INS2NS)
T1 construct: gene cydD; full-length heterodimer (64 + 63 kDa); CydD with NS insertion between residues 2 and 3 (cloning artefact), CydC with C-terminal SAGGRGSH6 tag kept; plasmid pHX100 in E. coli BL21
Test: stimulation of ATPase activity (colorimetric Pi release)
Assay type: biochemical

EC50: ~50 nM
SMILES: C=CC1=C(C)C2=Cc3c(C=C)c(C)c4[n]3[Fe]([Cl])[n]3c(c(C)c(CCC(=O)O)c3=CC3=NC(=C4)C(C)=C3CCC(=O)O)=CC1=N2 [hemin]
